Source: PMC5006944 (Cell, 2016)

Experiments:
[1] = test system: B-RAF and c-RAF binding to GST-RAS^G12D; conditions: HeLa cells treated overnight, 2 mM
[2] = test system: WM-1617 melanoma cell line (V599E BRAF); conditions: WM-1617 cells, RAS-independent MAPK signaling

Row | Compound | binding of B-RAF and c-RAF to activated GST-RAS^G12D [1] | ERK or MAPK phosphorylation [2]
1 | CCCS(=O)(=O)Nc1ccc(F)c(C(=O)c2c[nH]c3ncc(-c4ccc(Cl)cc4)cc23)c1F [PLX4032, vemurafenib, reference compound] | strong associations | completely block
2 | COc1cc(OC)c(/C=C/S(=O)(=O)Cc2ccc(OC)c(NCC(=O)O)c2)c(OC)c1 [RGS, rigosertib] | inability of the B-RAF and c-RAF proteins to bind | little or no inhibition
